## Apparent affinities of Ab-14 variants for a coronavirus HR2 peptide

Values reported by Li et al. 2023, doi:10.1038/s41467-023-39022-2 (FLAb copy).

Target: peptide PDVDLGDISGINAS, taken from heptad repeat 2 (HR2) of SARS-CoV-2 spike.

Parent scFv Ab-14: VH joined to VL by a 15-residue (Gly4Ser)3 linker. Changes lie in the light chain CDRs alone.
VH: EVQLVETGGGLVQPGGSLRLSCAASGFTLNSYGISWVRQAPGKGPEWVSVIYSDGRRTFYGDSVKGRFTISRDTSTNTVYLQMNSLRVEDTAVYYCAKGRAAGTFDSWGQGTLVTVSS
VL: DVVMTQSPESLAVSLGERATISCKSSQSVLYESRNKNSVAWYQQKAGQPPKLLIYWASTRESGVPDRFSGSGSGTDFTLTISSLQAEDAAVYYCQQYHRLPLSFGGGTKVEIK

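Phage display of a naive human antibody library on the peptide gave the parent. The variants were designed computationally from a first round of random CDR variants and then made and measured. Their group label is 14L_GP_Gibbs (GP: Gaussian process model; Gibbs: Gibbs sampling; a sequence that several methods proposed may carry one label only). In AlphaSeq, yeast of one mating type display the scFv and yeast of the other type display the target. Pairs that bind mate more often; barcode pairs of the diploids are counted by sequencing. The ratio of observed to expected reads was calibrated, replicate by replicate, on BCL2-family standards whose Kd was known from biolayer interferometry. There are six technical replicates.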

Changes read parent residue, position, new residue, counted from the first residue of the VL shown. Numbers give log10(Kd / nM), so 0 is 1 nM and 3 is 1 µM. Smaller is tighter. Of ten entries with the parent sequence, four were seen in most replicates (averages 0.34 to 2.37), three in one and three in none, so single entries are noisy. The range of this assay differs from that of the first round, and the authors advise against merging the two. Empty control strains, which show no peptide, gave a signal in 4% of pairings with all light chain designs; the median was 2.64 and 95% of these signals were weaker than 1.59. No background was subtracted. Also given: how often the same scFv was detected with the empty control strains, with their mean in brackets. The authors averaged sequences with at least three values out of six and counted those with two or fewer as poor binders.

changes	log10 Kd, replicates	control signals
S25V L30M Y31G E32G N37C W56N T59Q S62Q	0.36 0.39 0.45 0.41 0.29 0.64	1 of 18 (2.85)
S25L S26Q V29G Y31M E32G W56E E61L S62V Q96A	0.41 0.44 0.31 0.30 0.40 0.63	0 of 18
S33D R34K K36V W56H T59Q E61C	0.79 0.23 0.32 0.26 0.59 0.64	1 of 18 (4.01)
S25L S26E Q27I L30M Y31Q E32W W56N S62V	0.23 0.15 0.13 0.02 -0.01 0.36	0 of 18
S25L S26V V29D S38N W56G A57V T59Q	-0.32 -0.50 -0.57 -0.69 -0.79 -0.53	2 of 18 (3.66)
K24H S25L S26Y V29E N35M W56N	0.31 0.26 0.02 0.15 0.27 0.22	2 of 18 (2.62)
S25L S26Q Q27G V29H E32G W56H T59Q Q96C	2.09 1.72 1.15 2.09 2.27 2.41	1 of 18 (2.29)
S25Y S26Q Y31T W56N Q96D R99Q	0.48 1.31 0.52 0.69 0.52 1.45	2 of 18 (1.86)
S25L S28Q V29M S38N W56A T59D S62D	-0.12 -0.05 -0.19 -0.34 0.10 -0.10	0 of 18
S25L S26M Q27T V29D N35M S38A W56D E61M S62D	0.24 0.17 0.14 0.03 0.08 0.27	0 of 18
K24L S25V S28Q V29E S33D W56H T59Q E61L	0.78 0.50 0.79 0.43 1.02 1.38	0 of 18
S25V S28K V29D L30P Y31M E32G W56H T59V S62D	-0.29 -0.12 -0.29 -0.11 -0.05 -0.12	2 of 18 (3.44)
S25V S26E Q27F L30D S38A W56Q S62K	-0.02 -0.22 -0.31 -0.39 -0.23 -0.22	1 of 18 (2.61)
S25Q S26Q Q27F V29G L30M Y31M E32G W56S T59K	1.83 2.27 2.42 2.31 2.49 1.36	0 of 18
S25L Q27N V29W K36S W56H T59K E61M	1.77 2.17 1.83 1.71 1.65 2.07	1 of 18 (2.04)
S25F S26E S28Q V29W K36V W56N E61S S62Q	-0.22 -0.20 -0.26 -0.48 -0.42 -0.25	1 of 18 (2.41)
S25V S26Q V29E Y31G E32L N35M W56N T59K	0.38 0.27 0.17 0.10 0.17 0.17	2 of 18 (2.72)
S25L Q27K L30M N35M W56M E61Y S62E	0.67 0.22 0.42 0.03 0.17 0.21	0 of 18
S28I V29W Y31G E32M S33D R34G W56Q T59Q	0.44 0.38 0.31 0.56 0.70 0.85	1 of 18 (1.87)
Q27A V29E R34A N35A W56N S58M T59Q E61M	-0.50 -0.11 -0.02 -0.49 -0.33 -0.03	0 of 18
S25W S28L Y31G S33D N37M W56N T59Q S62E	0.44 0.34 0.11 0.42 0.35 0.41	1 of 18 (1.36)
V29E L30P W56N T59Q E61Y S62Q	2.36 0.33 0.03 0.85 0.75 0.82	0 of 18
S25Q S26Q Q27F V29S L30G Y31G W56E E61C	0.15 -0.01 0.04 0.00 -0.01 0.21	2 of 18 (2.38)
S25L S26Q Q27E S28Q V29K E32W W56E	0.51 0.41 0.70 0.43 0.28 0.95	0 of 18
S25Y Q27F Y31E E32L K36S S38A W56N S62E Q96D	0.28 0.13 -0.14 -0.19 0.17 0.21	2 of 18 (2.60)
S26M V29E L30Q S33D W56E E61C	0.29 0.09 -0.08 -0.07 0.09 0.25	4 of 18 (3.34)
S25Q L30M Y31G S33E W56A S62V	0.84 0.57 0.32 0.76 0.24 0.27	0 of 18
S25V S28G V29E Y31Q K36A S38N W56N T59Q S62N	-0.46 -0.67 -0.57 -0.68 -0.68 -0.68	2 of 18 (2.17)
S25I S26D Q27I V29E Y31G K36G W56N S62E	1.30 0.94 0.32 1.51 0.73 0.88	0 of 18
K24H S25L S26Y V29E N35M W56N E61S	0.16 0.12 0.15 0.12 0.10 0.24	3 of 18 (3.75)
S25L S26M Q27M S28L V29G L30D S38N W56Q T59Q S62Q	-0.41 -0.52 -0.69 -0.77 -0.58 -0.39	2 of 18 (3.41)
S25V S26K V29W N35M K36S S38N W56N T59L	-0.13 0.04 -0.35 -0.28 -0.04 -0.13	0 of 18
S25L S28Q V29M W56H T59L E61L Q96C	1.45 2.55 3.10 1.12 2.18 1.81	1 of 18 (2.63)
K24F S25I S26P V29G E32D S33N K36V W56S E61L	0.35 0.27 0.13 0.11 0.07 0.48	0 of 18
S25W N37M W56N A57G	0.64 0.53 0.15 0.32 0.33 0.55	0 of 18
S25I S26Q L30Y R34L K36Q W56H E61L S62Q	0.15 0.41 0.04 0.17 0.57 0.05	0 of 18